The values that follow come from patent US20110092476A1, “Bicycloheteroaryl compounds as P2X7 modulators and uses thereof” (Renovis, Inc., priority 2006, published 2011).

The chains behind the UniProt entries cited, without tags or fusion partners. Where a name states a change or a piece, a line headed by the entry shows the natural chain unless it says otherwise.
UniProt Q99572: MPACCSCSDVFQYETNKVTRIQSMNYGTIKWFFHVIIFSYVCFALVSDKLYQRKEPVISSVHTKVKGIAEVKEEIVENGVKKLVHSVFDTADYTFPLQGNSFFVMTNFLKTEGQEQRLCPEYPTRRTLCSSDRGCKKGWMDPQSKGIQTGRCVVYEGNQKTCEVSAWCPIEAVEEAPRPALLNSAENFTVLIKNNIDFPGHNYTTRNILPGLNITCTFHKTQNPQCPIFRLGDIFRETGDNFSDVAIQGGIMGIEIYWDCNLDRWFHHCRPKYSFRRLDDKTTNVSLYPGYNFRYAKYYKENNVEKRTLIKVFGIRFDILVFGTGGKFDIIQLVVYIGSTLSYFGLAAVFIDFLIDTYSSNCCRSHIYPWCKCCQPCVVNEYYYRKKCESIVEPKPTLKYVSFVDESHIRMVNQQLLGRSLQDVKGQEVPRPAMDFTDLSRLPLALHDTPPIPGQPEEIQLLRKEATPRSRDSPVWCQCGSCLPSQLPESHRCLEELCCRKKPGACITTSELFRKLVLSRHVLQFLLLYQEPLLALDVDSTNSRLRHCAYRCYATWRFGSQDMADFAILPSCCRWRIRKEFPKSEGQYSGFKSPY

Structures are written as SMILES.

This assay addresses T1, P2X7 receptor (Homo sapiens, UniProt Q99572).
T1 construct: host or cells: THP-1 cells differentiated with LPS and IFN-γ
The assay can be described thus: IL-1β release assay in differentiated THP-1 cells stimulated with BzATP (Example 9). Format: cell-based. The conditions noted are these: THP-1, read-out: IL-1β % Inhib. @ 0.3 or 0.1 uM. Here is the method:
THP-1 cells (ATCC Cat #285-IF-100) are plated in 96 well plates at a concentration of 200,000 cells per well and allowed to differentiate in RPMI-1640 media (ATCC Cat #30-2001) containing 10% FBS, 100 IU/mL penicillin, 100 ug/mL streptomycin, 100 ng/mL LPS and 100 ng/mL IFN-γ for 16 hours. Following differentiation, the cells are treated for an additional 2 hours in RPMI-1640 media containing 100 IU/mL penicillin, 100 ug/mL streptomycin and fresh LPS at 100 ng/mL. The cells are then pretreated for 30 minutes with the compound of interest at the appropriate concentration in RPMI media containing 100 IU/mL penicillin, 100 ug/mL streptomycin. […] 30 uL of cell supernatant is then collected and IL-1β levels determined via ELISA (R&D systems Cat. #HSLB50) according to manufacturer's recommendations using the Tecan Safire plate reader. […]
The following compounds have been or can be prepared according to the synthetic methods described herein for example, method A-AK. For the purpose of Table 1 below, activity of each compound, which can be determined using the IL-1β assay method described in Example 9, is expressed as follows: […]
The compounds set forth in Table 1 were tested for activity in a cellular model as described herein. Specifically, cells were pretreated with differing amounts of the compound under test and released IL-1β determined as in Example 9, above. […]

As for `O=C(Cc1ccc(Cl)c(C(F)(F)F)c1)Nc1cccc2c(=O)n(CCO)ccc12` [Compound 65, 2-(4-Chloro-3-trifluoromethyl-phenyl)-N-[2-(2-hydroxy-ethyl)-1-oxo-1,2-dihydro-isoquinolin-5-yl]-acetamide], the inhibition at 0.3 µM was > 76%.
